The structures appear in SMILES notation. The list shows a part of the results, in another mix than the full data. Potency and affinity values are given separately. Activity calls are given as the source filed them. No stated cut-off is given here; in the data, active means inhibition above about 50%; inactive means the rest.

Amino acid sequences for entries named in this document (tags omitted).
UniProt Q64346, whole entry: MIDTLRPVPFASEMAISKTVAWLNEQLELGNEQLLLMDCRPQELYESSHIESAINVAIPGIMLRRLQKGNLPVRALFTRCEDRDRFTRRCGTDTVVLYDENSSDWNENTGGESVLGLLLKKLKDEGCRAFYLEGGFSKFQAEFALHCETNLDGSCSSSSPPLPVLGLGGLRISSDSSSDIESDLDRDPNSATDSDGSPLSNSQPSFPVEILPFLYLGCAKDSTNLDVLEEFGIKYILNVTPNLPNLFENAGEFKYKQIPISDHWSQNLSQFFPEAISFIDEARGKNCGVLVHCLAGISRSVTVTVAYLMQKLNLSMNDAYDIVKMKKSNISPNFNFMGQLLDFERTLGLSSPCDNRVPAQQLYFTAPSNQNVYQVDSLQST

In this assay the target is Dual specificity protein phosphatase 6 (Rattus norvegicus) (UniProt Q64346). Briefly: inhibition of rat DUSP6 enzyme activity – biochemical, in vitro, primary screen (AID 425).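 Further: plate controls were vehicle for no effect and reference inhibitor for full effect.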 Conditions: recombinant MKP-3 phosphatase activity, fluorescence; at 20 µM; active compounds read high.
For orientation: inhibition means the drop in the measured response relative to a control, in per cent. Consider `COc1ccccc1OP(C)(=O)Nc1ccc(C)cc1` (stereo unspecified), for which the inhibition was inactive: -3.9%.

(Values after PubChem BioAssay AID425 (Sanford-Burnham Center for Chemical Genomics, 2006).)
